{
  "source": "PubChem BioAssay (EPA / NIEHS)",
  "note": "This is a selection; strong and weak results do not stand in their true shares. The source made the active and inactive calls. How the source made its calls: active means hit-call score of the fitted dose curve at least 0.9, where 1 is the maximum; inactive means score below 0.9.",
  "data": [
    {"assay": "ATG_GLI_CIS: Attagene CIS-FACTORIAL HepG2 Assay for human Zinc Finger Protein GLI1 (AID 2282945)", "details": "HepG2, Attagene cis-factorial reporter mRNA, GLI element; actives raise or lower the signal", "protocol": "ATG_CIS is a cell-based, multiplexed-readout assay that uses HepG2, a human liver cell line, with measurements taken at 24 hours after chemical dosing in a 24-well plate.ATG_GLI_CIS is one of 52 assay component(s) measured or calculated from the ATG_CIS assay. It is designed to make measurements of mRNA induction, a form of inducible reporter, as detected with fluorescence intensity signals by Reverse transcription polymerase chain reaction (RT-PCR) and Capillary electrophoresis technology.Data from the assay component ATG_GLI_CIS was analyzed into 1 assay endpoint. This assay endpoint, ATG_GLI_CIS, was analyzed with bidirectional fitting relative to DMSO as the negative control and baseline of activity. Using a type of inducible reporter, measures of mRNA for gain or loss-of-signal activity can be used to understand the reporter gene at the transcription factor-level as they relate to the gene GLI1. Furthermore, this assay endpoint can be referred to as a primary readout, because this assay has produced multiple assay endpoints where this one serves a reporter gene function. To generalize the intended target to other relatable targets, this assay endpoint is annotated to the dna binding intended target family, where the subfamily is zinc finger.\nHuman liver HepG2 cells are transiently transfected with multiple reporter transcription units (MRTUs) in 6-well plates using FuGene 6 reagent (Roche; 3 ml FuGene/1 mg DNA). The MRTU constructs are regulated by a cis-regulating element (promoter). […] A major difference between the CIS and TRANS system is that in CIS activities of endogenous TFs are measured, whereas the TRANS assay evaluates changes in activities of exogenous, chimeric NR-Gal4 proteins. […] At the end of 24 hour incubation, total RNA was isolated using TriZol reagent (Invitrogen). The isolated RNA is then reverse-transcribed using oligo(dT) primer and Mo-MLV reverse transcriptase (Invitrogen) with DNAse I (Ambion) treatment for 30 min. The one-tenth of the produced cDNA was amplified by PCR using Taq DNA polymerase (Invitrogen) and two reporter sequence-specific primers. The PCR products were fluorescently labeled by primer extension with 6-arboxyfluorescein (6-FAM) 5'-labeled reporter sequence-specific primer (2 min at 95 C, 20 s at 68 C and 10 min at 72 C) and these products were digested with 5U of HpaI (New England Biolabs) for 2h at 37 C. The fragments were purified using Qiaquick PCR columns (Qiagen), analyzed on an ABI 3130xL genetic analyzer (Applied Biosystems) with peak positions identified by using a set of X-rhodamine (ROX)-labeled MapMarker1000 molecular weight standards (BioVentures). The raw capillary electrophoresis data was processed using Attagraph software (Attagene).", "values": [
      {"smiles": "Cc1cccc([N+](=O)[O-])c1[N+](=O)[O-]", "outcome": "inactive"},
      {"smiles": "O=[N+]([O-])c1cccc([N+](=O)[O-])c1", "outcome": "inactive"},
      {"smiles": "O=[N+]([O-])OCC(CO[N+](=O)[O-])(CO[N+](=O)[O-])CO[N+](=O)[O-]", "outcome": "inactive"},
      {"smiles": "COP(C)(=O)OC", "outcome": "inactive"},
      {"smiles": "N#CBr", "outcome": "inactive"},
      {"smiles": "COc1ccc([N+](=O)[O-])cc1[N+](=O)[O-]", "outcome": "inactive"},
      {"smiles": "CC(C)N(CCO)C(C)C", "outcome": "inactive"},
      {"smiles": "Cc1c([N+](=O)[O-])cccc1[N+](=O)[O-]", "outcome": "inactive"},
      {"smiles": "CC(C)OP(C)(=O)OC(C)C", "outcome": "inactive"},
      {"smiles": "Cc1ccc([N+](=O)[O-])c([N+](=O)[O-])c1", "outcome": "inactive"},
      {"smiles": "CN(C)CCCl", "outcome": "inactive"},
      {"smiles": "Cc1ccc([N+](=O)[O-])cc1[N+](=O)[O-]", "outcome": "inactive"}
    ]}
  ]
}
